“Also recorded” adds a separate entry of the source.
Test system: SHH signaling activity in SHH-organoids
Assay: Drug treatment of SHH-organoids, positional domains analysed at day 20
Assay type: cell-based, human
Settings: day 20 SHH-organoids, doxycycline 400 ng/ml, drug day 0-10; lovastatin 5 μM, AY9944 1.25 μM, cyclopamine 1 μM

CC1=C2C[C@H]3[C@@H](CC=C4C[C@@H](O)CC[C@@]43C)[C@@H]2CC[C@]12O[C@@H]1C[C@H](C)CN[C@H]1[C@H]2C [cyclopamine]
SHH signaling activity (efficacy and range): inhibition of SHH signaling activity; also recorded: near complete inhibition of SHH activity

Source: US12404489B2, “Establishing topographic organization in three-dimensional tissue culture” (MEMORIAL SLOAN-KETTERING CANCER CENTER, priority 2017, dated 2025)
